# Data from publication PMC7782793, “Hydroxamic acid-modified peptide microarrays for profiling isozyme-selective interactions and inhibition of histone deacetylases” (Nature Communications, 2021).
# Amino acid sequences for entries named in this document (tags omitted). Residues count along the entry.
# UniProt P56524, 627-1084: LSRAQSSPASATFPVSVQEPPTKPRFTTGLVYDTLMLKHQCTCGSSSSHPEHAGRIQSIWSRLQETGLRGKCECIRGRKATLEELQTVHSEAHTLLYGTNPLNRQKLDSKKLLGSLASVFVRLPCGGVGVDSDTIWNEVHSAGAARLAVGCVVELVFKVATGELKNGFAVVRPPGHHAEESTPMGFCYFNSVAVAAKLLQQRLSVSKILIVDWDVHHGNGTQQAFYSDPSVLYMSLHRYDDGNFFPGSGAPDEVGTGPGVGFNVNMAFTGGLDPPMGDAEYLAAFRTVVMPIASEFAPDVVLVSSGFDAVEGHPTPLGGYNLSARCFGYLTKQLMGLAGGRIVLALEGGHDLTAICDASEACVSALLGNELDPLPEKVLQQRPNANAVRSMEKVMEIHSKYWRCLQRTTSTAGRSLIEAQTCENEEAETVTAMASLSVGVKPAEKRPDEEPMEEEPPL
# Where “and” joins values, the source holds several entries; their conditions need not be identical. Equal entries are not always repeated. Where two headings read alike, the source gives them in different places.
# Molecular target: HDAC4 (Homo sapiens, UniProt P56524)
# Conditions: 2 internal replicates
smiles,measurement,setting,value
"CC(/C=C/C(=O)NO)=C\[C@@H](C)C(=O)c1ccc(N(C)C)cc1 [TSA, trichostatin A, reference compound]",residual enzymatic activity relative to control wells,inhibitor 5 µM,15.14 and 20.9
same,residual enzymatic activity relative to control wells,inhibitor 50 µM,3.06 and 5.38
